{"source": "patent US12098352B2", "about": "“Stem cell-based lung-on-chip models” (EMULATE, INC., priority 2018, dated 2024)", "origin": "cited, not measured here", "test_system": "pulmonary vascular leakage", "details": "static conditions; cited from earlier work", "data": [{"substance": "IL-2: cytokine inducing lung toxicity / pulmonary edema on-chip", "values": [{"measurement": "pulmonary vascular leakage into the air channel", "value": "induce limited pulmonary vascular leakage"}]}]}
